A value given as a limit tells only on which side of the number the result lay.

A short description of data set [1]: Uninfected HeLa-ACE2 24 h live/dead cytotoxicity counter screen. The settings on record: human, uninfected HeLa-ACE2 cells.
The nature of another data set: in vitro. The note with it: human, Calu-3 uninfected cytotoxicity CC50 GeoMean.

As to `COc1ccc(C[C@H]2NC[C@H](O)[C@H]2OC(C)=O)cc1` [Anisomycin], the CC50 at 24 h in data set [1] (HeLa-ACE2 CC50, uninfected cells, Fig. 2b group) was at most 3 µM; in data set [1] (HeLa-ACE2 uninfected cytotoxicity CC50 GeoMean, unrounded geometric mean) it was 0.189 µM. In “in vitro”, this compound returned a CC50 above 5.98 µM.

The values above are taken from paper PMC8175350, “Drug repurposing screens identify chemical entities for the development of COVID-19 interventions” (Nature Communications, 2021).
